Patent US20080275058A1, “N-Substituted-1H-Quinoline-2,4-Diones, Preparation Method Thereof, And Pharmaceutical Composition Containing The Same” (KOREA RESEARCH INSTITUTE OF CHEMICAL TECHNOLOGY, priority 2005, published 2008)

The chains behind the UniProt entries cited, without tags or fusion partners.
UniProt P50406, whole entry: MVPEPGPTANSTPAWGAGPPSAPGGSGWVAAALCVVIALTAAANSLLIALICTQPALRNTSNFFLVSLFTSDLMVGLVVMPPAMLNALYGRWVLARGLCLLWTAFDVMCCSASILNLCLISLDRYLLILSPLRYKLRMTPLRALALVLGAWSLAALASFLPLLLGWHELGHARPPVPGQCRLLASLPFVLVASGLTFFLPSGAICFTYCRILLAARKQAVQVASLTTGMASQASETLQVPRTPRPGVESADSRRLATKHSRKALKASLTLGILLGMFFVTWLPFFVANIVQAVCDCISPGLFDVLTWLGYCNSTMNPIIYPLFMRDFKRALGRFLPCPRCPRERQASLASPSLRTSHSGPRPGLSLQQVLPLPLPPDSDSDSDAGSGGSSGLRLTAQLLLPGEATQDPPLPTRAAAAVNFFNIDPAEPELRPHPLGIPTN

Biological target: 5-HT6 receptors (Homo sapiens, UniProt P50406)
Test: Adenylyl cyclase activity (cAMP accumulation) in HeLa cells transfected with human 5-HT6 receptor
Format: cell-based
Conditions: 5-HT-induced cAMP increase

With `CSc1ccc2c(c1)C(N1CCN(C)CC1)Cc1ccccc1S2` (stereo not shown) [methiothepin, reference compound] the “increase in cAMP level inhibited (FIG. 1)” value was “inhibited”.
